Article PMC2792720 (PLoS ONE, 2009)

Protein sequences, listed by entry. Tags and fused reporters are not part of them.
UniProt P50637, whole entry: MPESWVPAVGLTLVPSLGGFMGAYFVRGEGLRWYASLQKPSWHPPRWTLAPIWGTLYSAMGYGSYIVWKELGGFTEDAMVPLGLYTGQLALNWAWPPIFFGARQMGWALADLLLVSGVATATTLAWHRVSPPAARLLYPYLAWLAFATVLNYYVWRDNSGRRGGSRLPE

Molecular target: TSPO (Mus musculus, UniProt P50637)
Assay: Filtration radioligand binding assay, [^3H]-PK 11195 binding to DBT cell homogenates
Conditions: read-out: EC50, competition for [^3H]-PK 11195 binding

COc1ccc(NCCCCCCN)c(CN(C(C)=O)c2cc(F)ccc2Oc2ccccc2)c1
EC50: 114 nM
